Earlier results in US20150376254A1, “GAMMA-MSH ANALOGUES” (TXP Pharma GmbH, priority 2014, published 2015).

By UniProt entry, the sequences of proteins in these tests, tags left out. Where a name states a change or a piece, a line headed by the entry shows the natural chain unless it says otherwise.
UniProt Q01726: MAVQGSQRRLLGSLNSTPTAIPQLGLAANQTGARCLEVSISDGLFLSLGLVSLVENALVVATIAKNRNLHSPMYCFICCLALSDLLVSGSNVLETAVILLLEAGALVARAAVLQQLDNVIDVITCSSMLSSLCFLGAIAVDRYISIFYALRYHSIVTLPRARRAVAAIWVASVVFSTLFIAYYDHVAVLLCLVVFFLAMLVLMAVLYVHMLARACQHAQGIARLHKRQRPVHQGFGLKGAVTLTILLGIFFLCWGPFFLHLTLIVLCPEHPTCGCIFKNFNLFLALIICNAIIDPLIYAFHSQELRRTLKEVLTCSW

Target: MC1r (Homo sapiens, UniProt Q01726)
Settings: J. Med. Chem. 2005, 48, 1839-1848

γ-MSH
binding affinity against the MC1r: weak
